In ChEMBL document CHEMBL1157636, “Novel C-aryl glucoside SGLT2 inhibitors as potential antidiabetic agents: 1,3,4-Thiadiazolylmethylphenyl glucoside congeners” (Bioorg Med Chem, 2010):

Target: T1, Sodium/glucose cotransporter 2 (Homo sapiens, UniProt P31639)
T1 sequence (P31639 whole entry): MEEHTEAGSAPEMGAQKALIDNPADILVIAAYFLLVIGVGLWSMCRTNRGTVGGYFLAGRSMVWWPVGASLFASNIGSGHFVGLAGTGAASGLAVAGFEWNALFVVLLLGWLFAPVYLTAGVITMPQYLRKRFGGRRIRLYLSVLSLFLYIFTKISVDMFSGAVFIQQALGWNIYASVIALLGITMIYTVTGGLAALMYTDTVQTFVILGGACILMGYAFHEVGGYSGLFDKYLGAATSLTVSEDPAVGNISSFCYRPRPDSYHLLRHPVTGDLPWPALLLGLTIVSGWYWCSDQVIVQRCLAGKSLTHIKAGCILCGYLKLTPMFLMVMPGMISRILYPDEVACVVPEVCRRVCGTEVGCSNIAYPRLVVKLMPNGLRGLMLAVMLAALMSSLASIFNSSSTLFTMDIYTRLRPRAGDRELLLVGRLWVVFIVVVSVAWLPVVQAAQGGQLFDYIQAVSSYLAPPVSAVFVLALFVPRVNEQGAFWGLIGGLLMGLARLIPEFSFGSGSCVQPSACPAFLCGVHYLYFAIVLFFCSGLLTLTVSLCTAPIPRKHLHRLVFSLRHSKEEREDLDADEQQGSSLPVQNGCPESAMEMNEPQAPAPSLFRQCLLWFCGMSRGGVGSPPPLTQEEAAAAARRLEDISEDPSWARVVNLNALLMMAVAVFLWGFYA
Test: Inhibition of human recombinant SGLT2 expressed in CHO cells by liquid scintillation counting
Type: cell-based
Summary of the method: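 hSGLT2 cloned from human kidney cDNA; stable clones selected by G418 resistance. Preincubated 10 min at 37 °C in sodium-free choline buffer pH 7.4. Then 2 h at 37 °C in Na⁺ uptake buffer with 1 mM unlabeled AMG plus ¹⁴C-AMG and inhibitor or DMSO. Washed, radioactivity counted; IC50 by nonlinear regression.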

IC50 | SMILES
1230 nM | OC[C@H]1O[C@H](c2cccc(Cc3nnc(-c4cccnc4)s3)c2)[C@H](O)[C@@H](O)[C@@H]1O
1420 nM | OC[C@H]1O[C@H](c2cccc(Cc3nnc(-c4ccccc4)s3)c2)[C@H](O)[C@@H](O)[C@@H]1O
